According to publication PMC8246065, “Cellular stress promotes NOD1/2‐dependent inflammation via the endogenous metabolite sphingosine‐1‐phosphate” (The EMBO Journal, 2021):

System: GFP
Conditions: Fig 6C

## CCCCCCCCCCCCC/C=C/[C@@H](O)[C@@H](N)COP(=O)(O)O [S1P, sphingosine‐1‐phosphate]
  Direct interaction with GFP by MST: not observed
